# Source: patent US8741883B2, “Compounds and methods for the diagnosis and treatment of amyloid associated diseases” (The Regents of the University of California—San Diego, priority 2005, dated 2014)
# Amino acid sequences for entries named in this document (tags omitted). Residues count along the entry.
# UniProt P05067, 672-713 limits assumed: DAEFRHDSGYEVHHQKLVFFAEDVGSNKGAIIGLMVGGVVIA
# Molecular target: monoclonal anti-Aβ IgG (clone 6E10)-A-beta fibril interactions (Homo sapiens, UniProt P05067)
# Conditions: for inhibition of the IgG-A-beta fibril interactions: clone 6E10, fibrils from A-beta 1-42
SMILES,IC50 [µM],inhibition of the IgG-A-beta fibril interactions [%]
Cc1ccc2nc(-c3ccc(NCCOCCOCCOCCOCCOCCO)cc3)sc2c1 [BTA-EG6],~100,99
Cc1ccc2nc(-c3ccc(NCCOCCOCCOCCO)cc3)sc2c1 [BTA-EG4],~100,94
